Source: article PMC11568203

Target: KLHDC10^41-C-EloB/C with a 10X Histidine tag on EloC (SPR) (UniProt Q6PID8)
Test: SPR; Biacore T200; His-tagged KLHDC10 complex captured on Ni-NTA chip (about 300 RU); ubiquitin variants as analytes 2 uM to 0.125 uM, multi-cycle kinetics; 25 mM Tris, 200 mM NaCl, 0.1% Tween20, pH 7.4; 20 °C; 1:1 binding model

Kd: 250 to 400 nM
Substance: All the ubiquitin variants
